Biological target: Poly [ADP-ribose] polymerase 1 (Homo sapiens, UniProt P09874)

Chains of the proteins cited; added tags and fusions are not shown.
UniProt P09874, whole entry: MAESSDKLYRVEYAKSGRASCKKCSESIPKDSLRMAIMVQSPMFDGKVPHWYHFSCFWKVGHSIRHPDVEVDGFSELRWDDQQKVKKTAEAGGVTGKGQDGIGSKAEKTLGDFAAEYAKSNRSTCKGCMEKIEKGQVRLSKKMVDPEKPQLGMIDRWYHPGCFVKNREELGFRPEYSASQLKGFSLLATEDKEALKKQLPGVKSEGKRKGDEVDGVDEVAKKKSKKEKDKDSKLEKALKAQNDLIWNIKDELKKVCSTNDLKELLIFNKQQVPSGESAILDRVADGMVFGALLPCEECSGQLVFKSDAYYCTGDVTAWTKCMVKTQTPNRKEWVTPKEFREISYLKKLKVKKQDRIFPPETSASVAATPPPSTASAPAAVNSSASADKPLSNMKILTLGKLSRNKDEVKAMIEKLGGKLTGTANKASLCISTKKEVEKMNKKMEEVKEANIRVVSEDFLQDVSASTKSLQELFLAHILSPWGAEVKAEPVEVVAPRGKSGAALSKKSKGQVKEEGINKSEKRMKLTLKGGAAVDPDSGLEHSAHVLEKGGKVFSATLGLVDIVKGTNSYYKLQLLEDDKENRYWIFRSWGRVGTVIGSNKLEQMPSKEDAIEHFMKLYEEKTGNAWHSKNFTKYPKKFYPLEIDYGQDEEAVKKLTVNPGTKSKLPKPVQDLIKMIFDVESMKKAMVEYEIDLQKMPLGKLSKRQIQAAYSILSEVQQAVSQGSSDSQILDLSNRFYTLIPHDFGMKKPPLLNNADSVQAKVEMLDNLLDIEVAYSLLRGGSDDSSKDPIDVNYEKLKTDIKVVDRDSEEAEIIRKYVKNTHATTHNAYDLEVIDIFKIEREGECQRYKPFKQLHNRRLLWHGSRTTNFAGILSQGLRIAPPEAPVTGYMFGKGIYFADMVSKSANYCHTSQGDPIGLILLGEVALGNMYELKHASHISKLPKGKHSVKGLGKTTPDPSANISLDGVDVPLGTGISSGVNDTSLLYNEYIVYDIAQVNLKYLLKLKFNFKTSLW

- IC50: 1000 nM
SMILES: Cc1nc2c(C(N)=O)cccc2[nH]1

Source: ChEMBL document CHEMBL1134673, “Modeling of poly(ADP-ribose)polymerase (PARP) inhibitors. Docking of ligands and quantitative structure-activity relationship analysis” (J Med Chem, 2001)
